{
  "source": "paper PMC8217813",
  "about": "“Bridging Computational Vaccinology and Vaccine Development Through Systematic Identification, Characterization, and Downselection of Conserved and Variable Circumsporozoite Protein CD4 T Cell Epitopes From Diverse Plasmodium falciparum Strains” (Frontiers in Immunology, 2021)",
  "test_system": "CD4 T cells co-cultured with autologous DCs from PBMCs",
  "format": "cell-based, human",
  "data": [
    {"compound": "CC[C@H](C)[C@H](NC(=O)[C@H](Cc1c[nH]cn1)NC(=O)[C@H](CCCCN)NC(C)=O)C(=O)N[C@@H](CCCCN)C(=O)N[C@@H](CCC(=O)O)C(=O)N[C@@H](Cc1ccc(O)cc1)C(=O)N[C@@H](CC(C)C)C(=O)N[C@@H](CC(N)=O)C(=O)N[C@@H](CCCCN)C(=O)N[C@H](C(=O)N[C@@H](CCC(N)=O)C(=O)N[C@@H](CC(N)=O)C(=O)N[C@@H](CO)C(=O)N[C@@H](CC(C)C)C(=O)N[C@@H](CO)C(=O)N[C@H](C(=O)N[C@@H](CCC(=O)O)C(=O)N[C@@H](Cc1c[nH]c2ccccc12)C(=O)N[C@@H](CO)C(N)=O)[C@@H](C)O)[C@@H](C)CC", "note": "[Cluster C3]", "values": [
      {"measurement": "Percentage of donors demonstrating IFN-γ responses, DR1", "value": 20, "unit": "%"},
      {"measurement": "Percentage of donors demonstrating IFN-γ responses, DR3", "value": 33, "unit": "%"},
      {"measurement": "Percentage of donors demonstrating IFN-γ responses, DR4", "value": 50, "unit": "%"},
      {"measurement": "Percentage of donors demonstrating IFN-γ responses, DR7", "value": 50, "unit": "%"},
      {"measurement": "Percentage of donors demonstrating IFN-γ responses, DR8", "value": 75, "unit": "%"},
      {"measurement": "Percentage of donors demonstrating IFN-γ responses, DR9", "value": 50, "unit": "%"},
      {"measurement": "Percentage of donors demonstrating IFN-γ responses, DR11", "value": 25, "unit": "%"},
      {"measurement": "Percentage of donors demonstrating IFN-γ responses, DR13", "value": 0, "unit": "%"},
      {"measurement": "Percentage of donors demonstrating IFN-γ responses, DR15", "value": 29, "unit": "%"},
      {"measurement": "Percentage of donors demonstrating IL-2 responses, DR1", "value": 20, "unit": "%"},
      {"measurement": "Percentage of donors demonstrating IL-2 responses, DR3", "value": 33, "unit": "%"},
      {"measurement": "Percentage of donors demonstrating IL-2 responses, DR4", "value": 40, "unit": "%"},
      {"measurement": "Percentage of donors demonstrating IL-2 responses, DR7", "value": 50, "unit": "%"},
      {"measurement": "Percentage of donors demonstrating IL-2 responses, DR8", "value": 50, "unit": "%"},
      {"measurement": "Percentage of donors demonstrating IL-2 responses, DR9", "value": 50, "unit": "%"},
      {"measurement": "Percentage of donors demonstrating IL-2 responses, DR11", "value": 25, "unit": "%"},
      {"measurement": "Percentage of donors demonstrating IL-2 responses, DR13", "value": 0, "unit": "%"},
      {"measurement": "Percentage of donors demonstrating IL-2 responses, DR15", "value": 14, "unit": "%"},
      {"measurement": "Percentage of donors demonstrating IL-4 responses, DR1", "value": 20, "unit": "%"},
      {"measurement": "Percentage of donors demonstrating IL-4 responses, DR3", "value": 0, "unit": "%"},
      {"measurement": "Percentage of donors demonstrating IL-4 responses, DR4", "value": 0, "unit": "%"},
      {"measurement": "Percentage of donors demonstrating IL-4 responses, DR7", "value": 0, "unit": "%"},
      {"measurement": "Percentage of donors demonstrating IL-4 responses, DR8", "value": 0, "unit": "%"},
      {"measurement": "Percentage of donors demonstrating IL-4 responses, DR9", "value": 0, "unit": "%"},
      {"measurement": "Percentage of donors demonstrating IL-4 responses, DR11", "value": 0, "unit": "%"},
      {"measurement": "Percentage of donors demonstrating IL-4 responses, DR13", "value": 0, "unit": "%"},
      {"measurement": "Percentage of donors demonstrating IL-4 responses, DR15", "value": 0, "unit": "%"},
      {"measurement": "Percentage of donors demonstrating IL-10 responses, DR1", "value": 0, "unit": "%"},
      {"measurement": "Percentage of donors demonstrating IL-10 responses, DR3", "value": 17, "unit": "%"},
      {"measurement": "Percentage of donors demonstrating IL-10 responses, DR4", "value": 10, "unit": "%"},
      {"measurement": "Percentage of donors demonstrating IL-10 responses, DR7", "value": 0, "unit": "%"},
      {"measurement": "Percentage of donors demonstrating IL-10 responses, DR8", "value": 25, "unit": "%"},
      {"measurement": "Percentage of donors demonstrating IL-10 responses, DR9", "value": 50, "unit": "%"},
      {"measurement": "Percentage of donors demonstrating IL-10 responses, DR11", "value": 0, "unit": "%"},
      {"measurement": "Percentage of donors demonstrating IL-10 responses, DR13", "value": 0, "unit": "%"},
      {"measurement": "Percentage of donors demonstrating IL-10 responses, DR15", "value": 29, "unit": "%"},
      {"measurement": "Percentage of donors demonstrating TNF-α responses, DR1", "value": 40, "unit": "%"},
      {"measurement": "Percentage of donors demonstrating TNF-α responses, DR3", "value": 33, "unit": "%"},
      {"measurement": "Percentage of donors demonstrating TNF-α responses, DR4", "value": 40, "unit": "%"},
      {"measurement": "Percentage of donors demonstrating TNF-α responses, DR7", "value": 50, "unit": "%"},
      {"measurement": "Percentage of donors demonstrating TNF-α responses, DR8", "value": 50, "unit": "%"},
      {"measurement": "Percentage of donors demonstrating TNF-α responses, DR9", "value": 50, "unit": "%"},
      {"measurement": "Percentage of donors demonstrating TNF-α responses, DR11", "value": 75, "unit": "%"},
      {"measurement": "Percentage of donors demonstrating TNF-α responses, DR13", "value": 14, "unit": "%"},
      {"measurement": "Percentage of donors demonstrating TNF-α responses, DR15", "value": 14, "unit": "%"}
    ]}
  ]
}
